Among the data in patent US20050266098A1, “Composition for treatment of a hydrofluoric acid burn” (priority 2004, published 2005) are Solubility and Solubility in water values, retold here.

Series [1] is described as follows: Solubility of active compounds in various solvent systems.
The conditions of series [2]: 20° C., background statement; cited from earlier work.

Consider calcium gluconate, for which the Solubility in series [1] (10% urea in water, 20 °C) is 0.4 g/100 mL; in series [1] (10% urea in water, 37 °C), 1.0 g/100 mL; in series [1] (10% urea in water, 60 °C), 1.4 g/100 mL; in series [1] (10% urea in water, 90 °C) it was 2.2 g/100 mL; in series [1] (45% DMSO in water, 20 °C), 0.2 g/100 mL; in series [1] (45% DMSO in water, 37 °C) it was 0.4 g/100 mL. Besides, the Solubility was found to be 1.0 g/100 mL in series [1] (45% DMSO in water, 60 °C); 1.3 g/100 mL in series [1] (45% DMSO in water, 90 °C); 0.1 g/100 mL in series [1] (100% DMSO, 20 °C); 0.3 g/100 mL in series [1] (100% DMSO, 37 °C); 0.6 g/100 mL in series [1] (100% DMSO, 60 °C); 1.1 g/100 mL in series [1] (100% DMSO, 90 °C). For the same substance, the Solubility was 0.4 g/100 mL in series [1] (Water, 20 °C); 1.0 g/100 mL in series [1] (Water, 37 °C); 2.4 g/100 mL in series [1] (Water, 60 °C); 5.6 g/100 mL in series [1] (Water, 90 °C). In addition, the Solubility in water in series [2] is 0.4 g/100 mL.
